Measured values as given in PubChem BioAssay AID588453 (National Center for Advancing Translational Sciences (NCATS), 2011).
The list shows a part of the results, in another mix than the full data. Inconclusive results are not listed. Active and inactive are the calls of the source. Calls come from the whole dose curve; as a rule, active = well fitted inhibition curve with a large enough effect; inconclusive = small, poorly fitted or top-dose-only effect; inactive = no such curve, though single readings can be large or run the other way.
% is set by controls: 0 for no effect and ±100 for the full control effect.
Note: nearly all actives have a fitted effect of over 65% in size.

Chains of the proteins cited; added tags and fusions are not shown.
UniProt O89049, whole entry: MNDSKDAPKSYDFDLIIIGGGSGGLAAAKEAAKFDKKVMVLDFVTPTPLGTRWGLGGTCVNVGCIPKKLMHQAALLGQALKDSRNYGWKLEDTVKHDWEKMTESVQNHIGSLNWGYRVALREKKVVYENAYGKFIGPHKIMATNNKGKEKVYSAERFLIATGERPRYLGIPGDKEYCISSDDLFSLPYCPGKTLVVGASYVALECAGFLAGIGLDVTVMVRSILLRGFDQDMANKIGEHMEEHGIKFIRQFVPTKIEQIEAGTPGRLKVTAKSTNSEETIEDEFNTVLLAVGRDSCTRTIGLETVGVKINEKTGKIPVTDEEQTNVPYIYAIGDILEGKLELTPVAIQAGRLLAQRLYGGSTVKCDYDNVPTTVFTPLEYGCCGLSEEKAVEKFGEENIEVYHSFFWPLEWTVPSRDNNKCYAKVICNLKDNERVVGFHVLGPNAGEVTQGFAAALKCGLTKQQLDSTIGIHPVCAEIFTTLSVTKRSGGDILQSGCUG

The compounds below were run against Thioredoxin reductase 1, cytoplasmic (Rattus norvegicus) (UniProt O89049) (assay: qHTS Assay for Inhibitors of Mammalian Selenoprotein Thioredoxin Reductase 1 (TrxR1): qHTS). Settings: recombinant rTrxR1, NADPH fluorescence consumption, selenite substrate; at 114 µM (top of the series).
For CP(=O)(Nc1ccccc1)Oc1ccc(F)cc1 (stereo unspecified), the activity change, negative = inhibition was inactive: 11.7%.
